Laboratory results from patent US20080248511A1, “METHODS TO QUENCH LIGHT FROM OPTICAL REACTIONS” (priority 2007, published 2008).

Biological target: T1, Renilla luciferase (Renilla reniformis, UniProt P27652)
T1 sequence (P27652 1-311): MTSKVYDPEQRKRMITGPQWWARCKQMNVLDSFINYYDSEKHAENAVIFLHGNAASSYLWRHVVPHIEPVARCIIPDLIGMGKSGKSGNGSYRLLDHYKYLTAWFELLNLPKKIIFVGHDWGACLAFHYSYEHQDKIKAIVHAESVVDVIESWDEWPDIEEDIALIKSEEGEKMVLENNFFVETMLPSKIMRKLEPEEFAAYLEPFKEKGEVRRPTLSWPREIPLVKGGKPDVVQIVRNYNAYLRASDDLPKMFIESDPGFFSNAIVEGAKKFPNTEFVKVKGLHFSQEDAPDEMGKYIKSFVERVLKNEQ
Assay: Quench of Renilla luciferase luminescence by competitive inhibitors in detergent-containing quenching reagent (Example 1)
Format: biochemical
Details: in the presence of lysing detergent and quenching reagent
Protocol: Renilla luciferase (1×10^−9 M in Renilla Luciferase Lysis Buffer (Promega))+0.1% Prionex (PentaPharma) was added to Renilla Luciferase Assay Buffer (Promega) containing 3 μM coelenterazine-h. The initial Renilla luciferase-mediated luminescence was measured for 10 seconds using a Turner 20/20 n (Turner BioSystems). A quenching reagent containing 50 mM HEPES pH 7.4, 16 mM MgSO4, 1 mM CDTA, 0.5% Tergitol NP-9, 0.015% dodecyltrimethylammonium bromide, 10 mM thiourea, 0.05% Mazu-DF-204 (PGP), and 1.5 mM ATP (Pharmacia) was added to the reactions to reduce the Renilla luciferase-mediated luciferase luminescence. To the quenching reagent, the competitive inhibitor methylether coelenterazine-h, methylether coelenterazine-hh or coelenteramide was titrated to either 10 μM or 100 μM in the quenching reagent. After the addition of the inhibitors, a second Renilla luciferase-mediated luminescence reading was taken. Unless otherwise specified, materials were obtained from Sigma-Aldrich.
The Ki values for each inhibitor in the presence of a lysing detergent and a quenching reagent is much greater (>100 μM versus 0.001 μM; about a 100,000 fold difference). The quenching agents described herein are effective in the presence of detergents used for cell lysis as well as other quenching agents.

Substance	Ki [µM]
methylether coelenterazine-h	> 100
methylether coelenterazine-hh	~100
